The numbers were not newly measured in publication PMC9930120 (Journal of Chemical Information and Modeling, 2023), which cites them from elsewhere.

Chains of the proteins cited; added tags and fusions are not shown.
UniProt P34972, whole entry: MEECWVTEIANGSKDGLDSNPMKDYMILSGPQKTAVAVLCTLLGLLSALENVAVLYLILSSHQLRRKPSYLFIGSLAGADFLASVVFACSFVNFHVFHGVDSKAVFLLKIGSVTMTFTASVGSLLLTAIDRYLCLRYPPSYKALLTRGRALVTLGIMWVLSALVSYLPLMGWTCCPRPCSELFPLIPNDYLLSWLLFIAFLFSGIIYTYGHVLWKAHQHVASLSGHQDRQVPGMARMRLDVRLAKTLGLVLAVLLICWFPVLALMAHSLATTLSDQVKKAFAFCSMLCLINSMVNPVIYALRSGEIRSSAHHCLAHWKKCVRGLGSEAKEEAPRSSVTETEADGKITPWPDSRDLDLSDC

As usually defined, the Ki is a measure of affinity in units of concentration, obtained from inhibition or displacement.

In this data set the target is human CB2 (Homo sapiens, UniProt P34972). To be noted: cited from earlier work.

Take `Cc1c(C(=O)NN2CCCCC2)nn(-c2ccc(Cl)cc2Cl)c1-c1ccc(I)cc1` [AM-251]: the Ki is 110 nM.
